# Measured values published in EP4831176A1, “BICYCLIC FUSED HETEROAROMATIC RING DERIVATIVE, AND PHARMACEUTICAL COMPOSITION AND USE THEREOF” (dated 2026).
# System: human B-cell non-Hodgkin lymphoma Karpas-422 cell line
# Assay: Subcutaneous xenograft tumor model of Karpas-422 cell line in BALB/c nude mice
# Procedure: • Animal species and strain: BALB/c nude mice • Administration history: no history of administration • Sex, age, weight: female, 6-8 weeks, body weight 18-25 grams • Breeder/supplier: Shanghai Model Organisms Center, Inc. • Acclimation period: no less than 3-7 days • Room: SPF area room • Indoor temperature: 20-26°C • Indoor relative humidity: 40-70% • Lighting: fluorescent lamp illumination, 12-hour light (08:00-20:00) and 12-hour dark • Animal housing: 2-6 animals per cage (same administration group) • Food: unlimited access to feed (irradiated sterilized, Shaanxi Qinle Pharmaceutical Chemical Co., Ltd., China) • Water: unlimited access to drinking water (tap water purified by ultrapure water filtration system) • Female BALB/c nude mice were purchased from the supplier and used to select animals with suitable body weight range and tumor size for enrollment. All animals were specific pathogen-free, approximately 6-8 weeks old upon arrival at the laboratory.
# The human B-cell non-Hodgkin lymphoma Karpas-422 cell line used in this experiment was cultured in RPMI-1640 medium supplemented with 10% FBS in a 37°C incubator with 5% CO2. Within ten passages of continuous culture, 100 µL of PBS containing 1 × 10^7 Karpas-422 cells was mixed with an equal volume of Matrigel, and the mixture was subcutaneously inoculated into the right side of the mouse near the armpit, with an inoculation volume of approximately 200 µL. Before inoculation, mice were anesthetized with 3-4% isoflurane.
# When the tumors grew to an average size of approximately 70-150 mm^3, tumor-bearing mice were randomly assigned to groups based on tumor volume and body weight, with 8 mice per group. The day of grouping and administration was defined as Day 0. […] According to the results disclosed in the reference (J. Med. Chem. 2021, 64, 14540-14556), Compound D1 (CAS: 2585648-55-9) was selected as the positive compound for this experiment.
# The control group was administered intraperitoneally with 70% aqueous solution containing 5% glucose + 30% aqueous solution containing 15% HP-β-CD. Table 12. Grouping and Administration Regimen
# Tumor volume: For the subcutaneous xenograft model, tumor volumes were measured twice weekly after grouping. The tumor volume (V) was calculated as follows: V = (length × width^2) / 2. The relative tumor volume (RTV) for each nude mouse was calculated as: RTV = Vt / V0, where Vt is the measured volume at each time point, and V0 is the volume at the start of treatment.
# Animal body weight: After grouping, mouse body weight was measured and recorded twice weekly.
# The negative control group was the control group, and the treatment groups were the groups administered D1 or H105. Results are presented as mean ± S.E.M. Comparisons between two groups were performed using Dunnett's multiple comparison test. A p-value < 0.05 was considered statistically significant.
# [1] = Day 0 (day of grouping and administration), Compound D1 50 mg/kg p.o. QD, Compound H105 10 mg/kg p.o. QD
# [2] = Day 30, Compound D1 50 mg/kg p.o. QD, Compound H105 10 mg/kg p.o. QD
structure (smiles),measurement,setting,value
CC(C)N1Cc2cc(C(F)(F)F)ncc2-c2cnc(NCc3c(F)ccc4c3CCO4)n3cnc(c23)C1=O,T/C,"Compound D1 50 mg/kg p.o. QD, Compound H105 10 mg/kg p.o. QD",2.53%
same,in vivo anti-tumor activity (in words),"Compound D1 at 50 mg/kg, Compound H105 at 10 mg/kg",could effectively inhibit tumor growth
same,Average body weight D0,[1],21.8 g
same,Tumor volume D0,[1],74
same,Average body weight D30,[2],20.8 g
same,Tumor volume D30,[2],30
same,RTV,"relative tumor volume Vt/V0, Compound D1 50 mg/kg p.o. QD, Compound H105 10 mg/kg p.o. QD",0.43
same,TGI,"tumor growth (volume) inhibition rate, Compound D1 50 mg/kg p.o. QD, Compound H105 10 mg/kg p.o. QD",103.56%
